Literature values as cited in patent US20090253721A1, “Combined treatment with radiation and an epidermal growth factor receptor kinase inhibitor” (priority 2004, published 2009).

Tested on: advanced H&N cancer
Settings: cited from earlier work

cetuximab: EGFR monoclonal antibody
improvement in locoregional disease control (at 2 yrs, favoring the cetuximab arm, log rank p=0.02): 8%
improvement in overall survival (at 3 yrs, favoring the cetuximab arm, log rank p=0.02): 13%
median survival versus radiation alone (cetuximab with radiation): near doubling
